From PubChem BioAssay (NCI)
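Growth conditions: 96-well plates. Treatment: test compound, 48 hours, 5 concentrations. Analysis: linear interpolation between bracketing concentrations; unreached endpoints set to highest concentration. The concentration for 50% growth inhibition is given as GI50. TGI denotes the concentration required for complete inhibition of growth.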

Experiments:
Assay in all cases: growth of human tumour cells (NCI), 48 h
786-0 renal = test system: 786-0 renal
A498 renal = test system: A498 renal
A549 NSCLC = test system: A549 NSCLC
ACHN renal = test system: ACHN renal
BT-549 breast = test system: BT-549 breast
CAKI-1 renal = test system: CAKI-1 renal
CCRF-CEM leukemia = test system: CCRF-CEM leukemia
COLO 205 colon = test system: COLO 205 colon
DU-145 prostate = test system: DU-145 prostate
HCT-116 colon = test system: HCT-116 colon
HCT-15 colon = test system: HCT-15 colon
HL-60(TB) leukemia = test system: HL-60(TB) leukemia
HOP-62 NSCLC = test system: HOP-62 NSCLC
HOP-92 NSCLC = test system: HOP-92 NSCLC
HS 578T breast = test system: HS 578T breast
HT29 colon = test system: HT29 colon
IGROV1 ovarian = test system: IGROV1 ovarian
K-562 leukemia = test system: K-562 leukemia
KM12 colon = test system: KM12 colon
LOX IMVI melanoma = test system: LOX IMVI melanoma
M14 melanoma = test system: M14 melanoma
MALME-3M melanoma = test system: MALME-3M melanoma
MCF7 breast = test system: MCF7 breast
MDA-MB-231 breast = test system: MDA-MB-231 breast
MDA-MB-435 = test system: MDA-MB-435
MDA-N = test system: MDA-N
MOLT-4 leukemia = test system: MOLT-4 leukemia
NCI-H23 lung = test system: NCI-H23 lung
NCI-H322M lung = test system: NCI-H322M lung
NCI-H460 lung = test system: NCI-H460 lung
NCI-H522 lung = test system: NCI-H522 lung
NCI/ADR-RES ovarian = test system: NCI/ADR-RES ovarian
OVCAR-3 ovarian = test system: OVCAR-3 ovarian
OVCAR-8 ovarian = test system: OVCAR-8 ovarian
PC-3 prostate = test system: PC-3 prostate
RPMI-8226 leukemia = test system: RPMI-8226 leukemia
RXF 393 renal = test system: RXF 393 renal
SF-268 CNS = test system: SF-268 CNS
SF-539 CNS = test system: SF-539 CNS
SK-MEL-2 melanoma = test system: SK-MEL-2 melanoma
SK-MEL-28 melanoma = test system: SK-MEL-28 melanoma
SK-MEL-5 melanoma = test system: SK-MEL-5 melanoma
SK-OV-3 ovarian = test system: SK-OV-3 ovarian
SN12C renal = test system: SN12C renal
SNB-19 CNS = test system: SNB-19 CNS
SNB-75 CNS = test system: SNB-75 CNS
SR leukemia = test system: SR leukemia
SW-620 colon = test system: SW-620 colon
T-47D breast = test system: T-47D breast
TK-10 renal = test system: TK-10 renal
U251 CNS = test system: U251 CNS
UACC-257 melanoma = test system: UACC-257 melanoma
UACC-62 melanoma = test system: UACC-62 melanoma
UO-31 renal = test system: UO-31 renal

O=C1OC(C(Cl)(Cl)Cl)Sc2ccccc21 (stereo not drawn)
GI50 (786-0 renal): > 100 µM
TGI (786-0 renal): > 100 µM
GI50 (A498 renal): > 100 µM
TGI (A498 renal): > 100 µM
GI50 (A549 NSCLC): > 100 µM
TGI (A549 NSCLC): > 100 µM
GI50 (ACHN renal): > 100 µM
TGI (ACHN renal): > 100 µM
GI50 (BT-549 breast): > 100 µM
TGI (BT-549 breast): > 100 µM
GI50 (CAKI-1 renal): > 100 µM
TGI (CAKI-1 renal): > 100 µM
GI50 (CCRF-CEM leukemia): 16.8 µM
TGI (CCRF-CEM leukemia): 96.1 µM
GI50 (COLO 205 colon): > 100 µM
TGI (COLO 205 colon): > 100 µM
GI50 (DU-145 prostate): > 100 µM
TGI (DU-145 prostate): > 100 µM
GI50 (HCT-116 colon): > 100 µM
TGI (HCT-116 colon): > 100 µM
GI50 (HCT-15 colon): > 100 µM
TGI (HCT-15 colon): > 100 µM
GI50 (HL-60(TB) leukemia): > 100 µM
TGI (HL-60(TB) leukemia): > 100 µM
GI50 (HOP-62 NSCLC): > 100 µM
TGI (HOP-62 NSCLC): > 100 µM
GI50 (HOP-92 NSCLC): > 100 µM
TGI (HOP-92 NSCLC): > 100 µM
GI50 (HS 578T breast): > 100 µM
TGI (HS 578T breast): > 100 µM
GI50 (HT29 colon): > 100 µM
TGI (HT29 colon): > 100 µM
GI50 (IGROV1 ovarian): 80.6 µM
TGI (IGROV1 ovarian): > 100 µM
GI50 (K-562 leukemia): > 100 µM
TGI (K-562 leukemia): > 100 µM
GI50 (KM12 colon): > 100 µM
TGI (KM12 colon): > 100 µM
GI50 (LOX IMVI melanoma): > 100 µM
TGI (LOX IMVI melanoma): > 100 µM
GI50 (M14 melanoma): > 100 µM
TGI (M14 melanoma): > 100 µM
GI50 (MALME-3M melanoma): 88.5 µM
TGI (MALME-3M melanoma): > 100 µM
GI50 (MCF7 breast): > 100 µM
TGI (MCF7 breast): > 100 µM
GI50 (MDA-MB-231 breast): > 100 µM
TGI (MDA-MB-231 breast): > 100 µM
GI50 (MDA-MB-435): > 100 µM
TGI (MDA-MB-435): > 100 µM
GI50 (MDA-N): > 100 µM
TGI (MDA-N): > 100 µM
GI50 (MOLT-4 leukemia): > 100 µM
TGI (MOLT-4 leukemia): > 100 µM
GI50 (NCI-H23 lung): > 100 µM
TGI (NCI-H23 lung): > 100 µM
GI50 (NCI-H322M lung): 67.9 µM
TGI (NCI-H322M lung): > 100 µM
GI50 (NCI-H460 lung): > 100 µM
TGI (NCI-H460 lung): > 100 µM
GI50 (NCI-H522 lung): > 100 µM
TGI (NCI-H522 lung): > 100 µM
GI50 (NCI/ADR-RES ovarian): > 100 µM
TGI (NCI/ADR-RES ovarian): > 100 µM
GI50 (OVCAR-3 ovarian): > 100 µM
TGI (OVCAR-3 ovarian): > 100 µM
GI50 (OVCAR-8 ovarian): > 100 µM
TGI (OVCAR-8 ovarian): > 100 µM
GI50 (PC-3 prostate): > 100 µM
TGI (PC-3 prostate): > 100 µM
GI50 (RPMI-8226 leukemia): > 100 µM
TGI (RPMI-8226 leukemia): > 100 µM
GI50 (RXF 393 renal): > 100 µM
TGI (RXF 393 renal): > 100 µM
GI50 (SF-268 CNS): > 100 µM
TGI (SF-268 CNS): > 100 µM
GI50 (SF-539 CNS): > 100 µM
TGI (SF-539 CNS): > 100 µM
GI50 (SK-MEL-2 melanoma): > 100 µM
TGI (SK-MEL-2 melanoma): > 100 µM
GI50 (SK-MEL-28 melanoma): > 100 µM
TGI (SK-MEL-28 melanoma): > 100 µM
GI50 (SK-MEL-5 melanoma): > 100 µM
TGI (SK-MEL-5 melanoma): > 100 µM
GI50 (SK-OV-3 ovarian): > 100 µM
TGI (SK-OV-3 ovarian): > 100 µM
GI50 (SN12C renal): > 100 µM
TGI (SN12C renal): > 100 µM
GI50 (SNB-19 CNS): > 100 µM
TGI (SNB-19 CNS): > 100 µM
GI50 (SNB-75 CNS): > 100 µM
TGI (SNB-75 CNS): > 100 µM
GI50 (SR leukemia): > 100 µM
TGI (SR leukemia): > 100 µM
GI50 (SW-620 colon): > 100 µM
TGI (SW-620 colon): > 100 µM
GI50 (T-47D breast): > 100 µM
TGI (T-47D breast): > 100 µM
GI50 (TK-10 renal): > 100 µM
TGI (TK-10 renal): > 100 µM
GI50 (U251 CNS): > 100 µM
TGI (U251 CNS): > 100 µM
GI50 (UACC-257 melanoma): > 100 µM
TGI (UACC-257 melanoma): > 100 µM
GI50 (UACC-62 melanoma): > 100 µM
TGI (UACC-62 melanoma): > 100 µM
GI50 (UO-31 renal): > 100 µM
TGI (UO-31 renal): > 100 µM
